# Columns and labels:
# Sequences of proteins named here, by UniProt entry; tags and fusion partners are left off. A change or cut given only in a name is not applied to a line headed by its entry. Residues count along the entry.
# UniProt Q07869, 167-468 limits assumed: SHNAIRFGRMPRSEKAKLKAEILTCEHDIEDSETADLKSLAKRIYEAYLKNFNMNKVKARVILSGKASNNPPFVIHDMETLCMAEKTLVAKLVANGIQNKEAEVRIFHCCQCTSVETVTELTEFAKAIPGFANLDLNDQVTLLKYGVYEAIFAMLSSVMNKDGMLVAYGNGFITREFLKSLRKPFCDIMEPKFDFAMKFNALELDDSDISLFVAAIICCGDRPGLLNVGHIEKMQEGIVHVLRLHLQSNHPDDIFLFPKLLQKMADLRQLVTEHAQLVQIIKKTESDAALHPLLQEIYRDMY
# UniProt Q03181, 138-440 limits assumed: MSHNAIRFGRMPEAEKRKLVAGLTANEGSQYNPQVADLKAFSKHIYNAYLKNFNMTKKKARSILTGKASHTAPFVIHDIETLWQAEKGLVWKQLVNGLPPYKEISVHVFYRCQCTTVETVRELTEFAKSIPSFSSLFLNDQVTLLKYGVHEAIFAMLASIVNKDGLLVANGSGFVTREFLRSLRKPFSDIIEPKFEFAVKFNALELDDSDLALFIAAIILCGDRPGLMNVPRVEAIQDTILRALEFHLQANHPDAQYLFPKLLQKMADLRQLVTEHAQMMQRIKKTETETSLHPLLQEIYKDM
# UniProt P37231, 202-503 limits assumed: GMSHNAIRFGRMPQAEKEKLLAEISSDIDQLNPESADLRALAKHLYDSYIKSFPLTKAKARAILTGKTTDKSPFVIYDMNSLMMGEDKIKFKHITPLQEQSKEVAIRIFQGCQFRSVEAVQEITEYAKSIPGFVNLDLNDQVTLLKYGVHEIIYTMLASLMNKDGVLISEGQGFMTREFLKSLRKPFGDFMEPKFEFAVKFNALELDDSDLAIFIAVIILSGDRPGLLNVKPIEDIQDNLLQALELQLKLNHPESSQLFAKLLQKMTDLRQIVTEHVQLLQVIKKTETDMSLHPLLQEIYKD
# Assay in all cases: Transcriptional activity, GAL4-PPAR LBD chimera / PLAP reporter in CV-1 cells
# [1] = biological target: human PPAR α (Homo sapiens, UniProt Q07869); settings: read-out: Transcriptional activity, EC50 PPAR α, GAL4-PPARα LBD, PLAP activity 24 hours after addition
# Source text: (§1) A GAL4-PPAR LBD chimera expression vector was constructed by ligating human PPAR 167-468 (PPAR α), 138-440 (NUC-1) and 174-475 (PPARγ) amino acid regions (LBD: Ligand Binding Domain) to a yeast transcriptional factor GAL4 1-147 amino acid region. As the reporter gene, PLAP (Placental Alkaline Phosphatase) was used, and this was ligated downstream of a TK promoter containing a 5-copy GAL4 DNA binding element to construct a vector. As host cells, CV-1 (ATCC CCL-70) was used. That is, CV-1 cells were spread at a density of 5×10^5 cells on a 35-mm dish and cultured in 10% FCS/DMEM for 24 hours, and using FuGENE 6 transfection reagent, the cells were co-transfected with the GAL4-PPAR LBD expression vector and GAL4 DBD-TK-PLAP expression vector. 24 hours after this transfection, the cells were spread again on a 96-well plate at a density of 1×10^4/well and further cultured for 24 hours. After 24 hours, the medium was exchanged with DMEM containing 10% FCS, which was previously treated at 65° C. for inactivating intrinsic alkaline phosphatase, and a test compound was added at an arbitrary concentration. The transcriptional activity was determined in terms of PLAP activity secreted 24 hours after addition of the compound, to calculate EC50.
# (§2) The PLAP activity was determined after adding 50 μl assay buffer and 50 μl chemoluminescence substrate to 10 μl culture supernatant and incubating the mixture at room temperature for 1 hour. In this way, transcription activities with respect to PPARα, PPARβ(δ) and PPARγ could be determined.
# [2] = biological target: human PPAR β (NUC-1, PPARβ(δ)) (Homo sapiens, UniProt Q03181); settings: read-out: Transcriptional activity, EC50 PPAR β, GAL4-PPARβ(δ) (NUC-1) LBD, PLAP activity 24 hours after addition
# Source text: as §1, §2
# [3] = biological target: human PPAR γ (Homo sapiens, UniProt P37231); settings: read-out: Transcriptional activity, EC50 PPAR γ, GAL4-PPARγ LBD, PLAP activity 24 hours after addition
# Source text: as §1, §2
smiles,measurement,setting,value
COc1ccc(-c2cccc(C(=O)O)c2)cc1CNC(=O)c1sc(-c2ccc(Cl)cc2)nc1C,EC50,[1],< 0.1 nM
same,EC50,[2],176 nM
same,EC50,[3],711 nM
